From ChEMBL document CHEMBL5625255, “Discovery of a novel series of potent carbonic anhydrase inhibitors with selective affinity for μ Opioid receptor for Safer and long-lasting analgesia” (2023)

Amino acid sequences for entries named in this document (tags omitted). Residues count along the entry.
UniProt Q9ULX7, 16-337 limits assumed: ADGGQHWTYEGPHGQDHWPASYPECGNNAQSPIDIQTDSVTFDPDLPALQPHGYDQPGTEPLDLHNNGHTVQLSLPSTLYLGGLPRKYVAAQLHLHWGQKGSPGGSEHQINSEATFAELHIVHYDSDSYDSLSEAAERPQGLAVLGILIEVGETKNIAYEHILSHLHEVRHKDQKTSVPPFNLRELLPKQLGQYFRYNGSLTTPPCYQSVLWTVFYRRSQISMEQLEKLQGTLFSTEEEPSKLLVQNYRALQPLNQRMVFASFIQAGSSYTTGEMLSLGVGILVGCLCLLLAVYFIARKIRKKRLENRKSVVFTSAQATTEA
UniProt P43166, whole entry: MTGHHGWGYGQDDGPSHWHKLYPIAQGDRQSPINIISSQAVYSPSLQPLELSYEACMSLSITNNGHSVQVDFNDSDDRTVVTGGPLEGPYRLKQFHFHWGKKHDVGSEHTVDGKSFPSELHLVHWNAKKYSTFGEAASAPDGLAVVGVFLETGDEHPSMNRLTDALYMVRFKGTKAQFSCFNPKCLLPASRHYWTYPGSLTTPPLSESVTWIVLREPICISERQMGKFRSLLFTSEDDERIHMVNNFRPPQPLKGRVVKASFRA
UniProt P35218, 39-305 limits assumed: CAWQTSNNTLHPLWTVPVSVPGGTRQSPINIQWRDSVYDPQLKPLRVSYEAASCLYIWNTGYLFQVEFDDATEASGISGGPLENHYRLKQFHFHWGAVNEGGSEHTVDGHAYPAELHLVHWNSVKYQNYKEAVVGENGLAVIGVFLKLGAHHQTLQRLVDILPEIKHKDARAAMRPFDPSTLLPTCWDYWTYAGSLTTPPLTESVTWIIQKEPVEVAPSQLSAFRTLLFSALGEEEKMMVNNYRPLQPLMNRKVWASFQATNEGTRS
UniProt Q8N1Q1, whole entry: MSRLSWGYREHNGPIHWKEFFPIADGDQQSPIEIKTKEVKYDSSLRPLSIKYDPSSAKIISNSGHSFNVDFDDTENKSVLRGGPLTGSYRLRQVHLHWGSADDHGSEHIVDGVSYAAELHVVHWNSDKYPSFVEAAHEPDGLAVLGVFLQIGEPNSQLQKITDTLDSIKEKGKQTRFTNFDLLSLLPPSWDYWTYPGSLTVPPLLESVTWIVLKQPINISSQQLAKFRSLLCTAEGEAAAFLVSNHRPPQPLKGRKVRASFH
UniProt O43570, 25-354 limits assumed: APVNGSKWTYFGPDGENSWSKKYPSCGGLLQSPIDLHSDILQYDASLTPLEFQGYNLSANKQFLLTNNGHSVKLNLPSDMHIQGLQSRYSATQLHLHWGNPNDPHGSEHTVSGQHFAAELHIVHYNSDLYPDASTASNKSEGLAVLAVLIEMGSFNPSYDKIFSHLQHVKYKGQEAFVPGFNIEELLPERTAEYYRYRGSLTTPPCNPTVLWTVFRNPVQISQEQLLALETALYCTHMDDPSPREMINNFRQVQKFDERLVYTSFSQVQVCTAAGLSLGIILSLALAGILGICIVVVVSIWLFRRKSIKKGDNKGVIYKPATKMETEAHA
UniProt P22748, 19-284 limits assumed: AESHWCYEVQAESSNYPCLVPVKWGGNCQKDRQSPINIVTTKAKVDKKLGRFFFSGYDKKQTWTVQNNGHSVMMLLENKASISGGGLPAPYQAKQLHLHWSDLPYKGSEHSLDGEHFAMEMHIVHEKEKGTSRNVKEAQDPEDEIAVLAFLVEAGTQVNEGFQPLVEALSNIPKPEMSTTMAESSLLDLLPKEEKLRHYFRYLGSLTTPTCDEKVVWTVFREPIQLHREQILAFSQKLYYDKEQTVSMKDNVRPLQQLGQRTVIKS
UniProt P00915, 2-261 limits assumed: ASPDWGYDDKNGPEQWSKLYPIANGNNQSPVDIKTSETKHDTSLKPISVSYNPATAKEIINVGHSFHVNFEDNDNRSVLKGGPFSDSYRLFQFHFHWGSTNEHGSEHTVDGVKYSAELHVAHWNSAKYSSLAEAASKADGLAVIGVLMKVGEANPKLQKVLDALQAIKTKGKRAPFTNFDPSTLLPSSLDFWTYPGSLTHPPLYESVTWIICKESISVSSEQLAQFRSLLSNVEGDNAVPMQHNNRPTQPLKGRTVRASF

Legend:
[1] = target: Carbonic anhydrase 9 (Homo sapiens, UniProt Q16790); experiment: Inhibition of recombinant human CA-IX incubated for 15 mins by stop-flow method
[2] = target: Carbonic anhydrase 14 (Homo sapiens, UniProt Q9ULX7); experiment: Inhibition of recombinant human CA-XIV incubated for 15 mins by stop-flow method
[3] = target: Carbonic anhydrase 7 (Homo sapiens, UniProt P43166); experiment: Inhibition of recombinant human CA-VII incubated for 15 mins by stop-flow method
[4] = target: Carbonic anhydrase 2 (Homo sapiens, UniProt P00918); experiment: Inhibition of recombinant human CA-II incubated for 15 mins by stop-flow method
[5] = target: Carbonic anhydrase 5A, mitochondrial (Homo sapiens, UniProt P35218); experiment: Inhibition of recombinant human CA-VA incubated for 15 mins by stop-flow method
[6] = target: Carbonic anhydrase 13 (Homo sapiens, UniProt Q8N1Q1); experiment: Inhibition of recombinant human CA-XIII incubated for 15 mins by stop-flow method
[7] = target: Carbonic anhydrase 12 (Homo sapiens, UniProt O43570); experiment: Inhibition of recombinant human CA-XII incubated for 15 mins by stop-flow method
[8] = target: Carbonic anhydrase 4 (Homo sapiens, UniProt P22748); experiment: Inhibition of recombinant human CA-IV incubated for 15 mins by stop-flow method
[9] = target: Carbonic anhydrase 1 (Homo sapiens, UniProt P00915); experiment: Inhibition of recombinant human CA-I incubated for 15 mins by stop-flow method

SMILES	Ki [1] [nM]	Ki [2] [nM]	Ki [3] [nM]	Ki [4] [nM]	Ki [5] [nM]	Ki [6] [nM]	Ki [7] [nM]	Ki [8] [nM]	Ki [9] [nM]
NS(=O)(=O)c1ccc(CCN2CCC(Nc3ccccc3)CC2)cc1	16.6	38.1	9.5	18.3	76.6	63.7	5.6	7590	66.5
Cc1ccc(NC2(C#N)CCN(CCc3ccc(S(N)(=O)=O)cc3)CC2)cc1		60.2	9.4	8.5		3370	48.9	9170	
N#CC1(Nc2ccccc2)CCN(CCc2ccc(S(N)(=O)=O)cc2)CC1	4.8	91.5	33.7	0.7	75	3470	7.8	9340	4.6
